# How the values were obtained:
# [1] = system: 10326 NUT midline carcinoma cell line; experiment: Anti-cancer activity in NUT midline carcinoma cell line
# [2] = system: 797 NUT midline carcinoma cell line; experiment: as above
smiles,measurement,setting,value
CC(C)[C@@H]1NC(=O)[C@]2(C)CSC(=N2)c2csc(n2)CNC(=O)C[C@@H](/C=C/CCS)NC1=O,IC50 difference below that of parent largazole,[1]; 10326 cell line,20 nM
same,IC50,"[1]; read-out: IC50 in 10326 cells, 10326 NUT midline carcinoma cell line",10 nM
same,IC50 difference below that of parent largazole,[2]; 797 cell line,10 nM
same,IC50,"[2]; read-out: IC50 in 797 cells, 797 NUT midline carcinoma cell line",10 nM

# Reference: patent US10538534B2 (Colorado State University Research Foundation, priority 2015, dated 2020)
